Experimental findings from ChEMBL document CHEMBL3217617 (Medchemcomm, 2012) are described below.

Chains of the proteins cited; added tags and fusions are not shown. Lines headed by an entry give the natural chain unless they say otherwise; changes in a name come on top.
UniProt Q13547, whole entry: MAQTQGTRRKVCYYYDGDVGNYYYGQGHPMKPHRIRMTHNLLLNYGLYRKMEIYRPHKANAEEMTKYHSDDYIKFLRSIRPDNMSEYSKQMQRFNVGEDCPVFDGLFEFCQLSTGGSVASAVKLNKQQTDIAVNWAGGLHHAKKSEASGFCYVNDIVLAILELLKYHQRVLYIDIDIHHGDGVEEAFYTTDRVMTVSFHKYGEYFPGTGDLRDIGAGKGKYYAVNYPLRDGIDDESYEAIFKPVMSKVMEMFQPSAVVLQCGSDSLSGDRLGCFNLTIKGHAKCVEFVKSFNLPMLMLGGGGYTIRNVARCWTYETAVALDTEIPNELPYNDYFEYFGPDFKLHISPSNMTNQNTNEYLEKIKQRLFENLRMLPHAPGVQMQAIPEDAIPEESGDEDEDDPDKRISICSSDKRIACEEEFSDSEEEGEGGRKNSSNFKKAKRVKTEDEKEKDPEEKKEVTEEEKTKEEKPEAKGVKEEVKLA
UniProt O15379: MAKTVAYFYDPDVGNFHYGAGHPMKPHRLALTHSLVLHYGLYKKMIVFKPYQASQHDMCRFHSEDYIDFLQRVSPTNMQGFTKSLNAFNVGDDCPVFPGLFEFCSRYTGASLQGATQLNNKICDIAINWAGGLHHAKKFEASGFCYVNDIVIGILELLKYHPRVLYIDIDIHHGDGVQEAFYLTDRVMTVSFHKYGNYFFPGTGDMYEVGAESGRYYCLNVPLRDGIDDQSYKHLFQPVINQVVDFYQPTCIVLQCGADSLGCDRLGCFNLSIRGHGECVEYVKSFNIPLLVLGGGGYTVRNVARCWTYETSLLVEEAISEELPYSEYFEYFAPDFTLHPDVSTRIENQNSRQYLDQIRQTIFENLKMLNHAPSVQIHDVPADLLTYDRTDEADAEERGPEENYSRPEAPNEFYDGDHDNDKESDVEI
UniProt Q9UBN7: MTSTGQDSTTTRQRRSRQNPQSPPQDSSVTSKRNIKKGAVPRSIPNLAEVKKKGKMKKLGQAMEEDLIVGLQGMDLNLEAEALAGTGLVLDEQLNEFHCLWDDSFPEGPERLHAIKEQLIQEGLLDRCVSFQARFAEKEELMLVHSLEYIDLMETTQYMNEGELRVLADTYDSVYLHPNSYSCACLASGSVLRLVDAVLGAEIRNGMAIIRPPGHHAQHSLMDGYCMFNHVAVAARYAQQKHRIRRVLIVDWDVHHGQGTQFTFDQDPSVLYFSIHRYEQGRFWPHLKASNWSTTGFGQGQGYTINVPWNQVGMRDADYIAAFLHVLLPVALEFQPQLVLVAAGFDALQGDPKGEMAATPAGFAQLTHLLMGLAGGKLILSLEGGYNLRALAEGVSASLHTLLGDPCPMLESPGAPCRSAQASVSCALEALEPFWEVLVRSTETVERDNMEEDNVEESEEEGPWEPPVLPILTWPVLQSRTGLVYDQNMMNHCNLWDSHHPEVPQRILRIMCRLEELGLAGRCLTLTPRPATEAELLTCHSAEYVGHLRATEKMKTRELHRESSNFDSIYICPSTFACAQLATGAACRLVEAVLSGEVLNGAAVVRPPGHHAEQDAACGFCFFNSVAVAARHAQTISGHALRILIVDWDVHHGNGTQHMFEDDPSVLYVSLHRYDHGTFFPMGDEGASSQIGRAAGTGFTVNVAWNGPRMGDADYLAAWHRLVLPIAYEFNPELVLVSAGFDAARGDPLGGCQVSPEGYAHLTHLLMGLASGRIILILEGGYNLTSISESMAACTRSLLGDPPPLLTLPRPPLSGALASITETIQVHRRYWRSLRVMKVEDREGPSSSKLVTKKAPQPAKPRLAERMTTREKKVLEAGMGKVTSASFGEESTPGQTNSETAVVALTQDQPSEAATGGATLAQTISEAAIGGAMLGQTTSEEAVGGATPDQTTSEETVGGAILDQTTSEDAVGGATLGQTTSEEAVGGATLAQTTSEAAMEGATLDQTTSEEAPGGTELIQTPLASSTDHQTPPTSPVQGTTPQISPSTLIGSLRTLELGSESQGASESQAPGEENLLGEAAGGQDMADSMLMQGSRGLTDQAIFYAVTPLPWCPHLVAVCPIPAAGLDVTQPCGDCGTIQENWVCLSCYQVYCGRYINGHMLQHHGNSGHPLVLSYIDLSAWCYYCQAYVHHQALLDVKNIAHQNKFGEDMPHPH
UniProt Q9UQL6: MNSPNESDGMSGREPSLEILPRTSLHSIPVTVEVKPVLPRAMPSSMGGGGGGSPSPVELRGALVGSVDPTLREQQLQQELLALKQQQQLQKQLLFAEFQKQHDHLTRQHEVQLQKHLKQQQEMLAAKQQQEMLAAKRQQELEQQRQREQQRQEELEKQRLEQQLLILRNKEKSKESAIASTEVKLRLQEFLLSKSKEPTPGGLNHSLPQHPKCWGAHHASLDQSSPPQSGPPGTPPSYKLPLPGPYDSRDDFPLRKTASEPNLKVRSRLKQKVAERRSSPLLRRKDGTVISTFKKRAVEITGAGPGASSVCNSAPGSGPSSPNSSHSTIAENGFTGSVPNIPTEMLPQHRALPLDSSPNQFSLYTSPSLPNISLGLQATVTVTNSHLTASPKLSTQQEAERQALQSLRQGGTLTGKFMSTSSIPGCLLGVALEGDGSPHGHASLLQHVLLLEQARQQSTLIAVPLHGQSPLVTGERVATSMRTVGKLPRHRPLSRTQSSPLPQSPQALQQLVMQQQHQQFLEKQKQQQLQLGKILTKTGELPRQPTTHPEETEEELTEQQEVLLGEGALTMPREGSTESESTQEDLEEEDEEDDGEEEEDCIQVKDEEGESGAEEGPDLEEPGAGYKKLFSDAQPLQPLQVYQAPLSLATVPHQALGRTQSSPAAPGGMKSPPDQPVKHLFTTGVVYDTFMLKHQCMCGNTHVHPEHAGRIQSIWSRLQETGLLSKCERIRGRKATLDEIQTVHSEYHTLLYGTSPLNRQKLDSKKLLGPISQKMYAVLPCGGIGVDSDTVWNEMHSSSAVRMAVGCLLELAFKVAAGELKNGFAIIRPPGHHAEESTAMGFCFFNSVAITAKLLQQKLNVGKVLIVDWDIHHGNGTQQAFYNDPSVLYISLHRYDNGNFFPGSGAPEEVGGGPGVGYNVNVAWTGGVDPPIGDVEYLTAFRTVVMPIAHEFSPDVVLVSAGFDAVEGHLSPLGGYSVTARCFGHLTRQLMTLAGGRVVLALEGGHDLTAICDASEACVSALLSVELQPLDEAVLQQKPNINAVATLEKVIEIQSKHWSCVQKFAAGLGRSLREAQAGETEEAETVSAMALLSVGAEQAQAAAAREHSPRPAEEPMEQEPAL
UniProt Q9BY41: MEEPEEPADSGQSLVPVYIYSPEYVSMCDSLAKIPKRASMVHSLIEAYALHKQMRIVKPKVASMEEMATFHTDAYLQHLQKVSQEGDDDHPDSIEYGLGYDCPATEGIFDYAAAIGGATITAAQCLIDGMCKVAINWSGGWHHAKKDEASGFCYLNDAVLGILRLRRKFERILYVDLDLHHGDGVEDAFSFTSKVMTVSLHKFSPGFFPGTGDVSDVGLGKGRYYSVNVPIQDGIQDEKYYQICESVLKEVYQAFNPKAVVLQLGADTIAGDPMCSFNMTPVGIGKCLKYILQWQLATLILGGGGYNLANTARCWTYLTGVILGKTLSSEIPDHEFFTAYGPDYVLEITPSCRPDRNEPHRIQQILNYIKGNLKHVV
UniProt P56524: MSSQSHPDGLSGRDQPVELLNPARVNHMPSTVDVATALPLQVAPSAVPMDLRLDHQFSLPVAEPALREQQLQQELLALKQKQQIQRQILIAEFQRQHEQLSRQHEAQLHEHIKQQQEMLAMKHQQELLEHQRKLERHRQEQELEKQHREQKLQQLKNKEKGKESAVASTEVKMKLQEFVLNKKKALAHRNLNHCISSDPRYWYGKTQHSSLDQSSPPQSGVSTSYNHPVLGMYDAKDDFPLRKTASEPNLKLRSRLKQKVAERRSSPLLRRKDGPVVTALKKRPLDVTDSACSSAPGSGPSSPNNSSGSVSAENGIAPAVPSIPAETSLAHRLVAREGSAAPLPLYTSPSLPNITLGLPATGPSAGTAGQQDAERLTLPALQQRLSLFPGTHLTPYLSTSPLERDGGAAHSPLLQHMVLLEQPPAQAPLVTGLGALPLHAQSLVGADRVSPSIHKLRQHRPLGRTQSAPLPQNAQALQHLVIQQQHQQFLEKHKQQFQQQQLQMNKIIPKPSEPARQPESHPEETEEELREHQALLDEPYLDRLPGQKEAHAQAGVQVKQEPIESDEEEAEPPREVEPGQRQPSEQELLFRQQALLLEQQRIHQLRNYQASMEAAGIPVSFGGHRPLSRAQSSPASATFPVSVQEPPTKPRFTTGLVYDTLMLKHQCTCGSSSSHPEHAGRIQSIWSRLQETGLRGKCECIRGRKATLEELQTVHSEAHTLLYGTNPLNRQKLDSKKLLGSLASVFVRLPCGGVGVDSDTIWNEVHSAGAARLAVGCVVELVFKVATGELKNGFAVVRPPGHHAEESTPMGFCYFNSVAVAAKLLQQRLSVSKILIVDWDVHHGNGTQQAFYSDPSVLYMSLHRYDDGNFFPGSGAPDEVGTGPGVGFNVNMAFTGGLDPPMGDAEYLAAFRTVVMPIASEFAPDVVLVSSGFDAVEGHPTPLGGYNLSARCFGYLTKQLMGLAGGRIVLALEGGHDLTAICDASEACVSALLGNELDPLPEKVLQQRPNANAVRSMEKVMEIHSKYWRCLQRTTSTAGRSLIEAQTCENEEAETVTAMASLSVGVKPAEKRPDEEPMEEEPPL
UniProt Q9UKV0: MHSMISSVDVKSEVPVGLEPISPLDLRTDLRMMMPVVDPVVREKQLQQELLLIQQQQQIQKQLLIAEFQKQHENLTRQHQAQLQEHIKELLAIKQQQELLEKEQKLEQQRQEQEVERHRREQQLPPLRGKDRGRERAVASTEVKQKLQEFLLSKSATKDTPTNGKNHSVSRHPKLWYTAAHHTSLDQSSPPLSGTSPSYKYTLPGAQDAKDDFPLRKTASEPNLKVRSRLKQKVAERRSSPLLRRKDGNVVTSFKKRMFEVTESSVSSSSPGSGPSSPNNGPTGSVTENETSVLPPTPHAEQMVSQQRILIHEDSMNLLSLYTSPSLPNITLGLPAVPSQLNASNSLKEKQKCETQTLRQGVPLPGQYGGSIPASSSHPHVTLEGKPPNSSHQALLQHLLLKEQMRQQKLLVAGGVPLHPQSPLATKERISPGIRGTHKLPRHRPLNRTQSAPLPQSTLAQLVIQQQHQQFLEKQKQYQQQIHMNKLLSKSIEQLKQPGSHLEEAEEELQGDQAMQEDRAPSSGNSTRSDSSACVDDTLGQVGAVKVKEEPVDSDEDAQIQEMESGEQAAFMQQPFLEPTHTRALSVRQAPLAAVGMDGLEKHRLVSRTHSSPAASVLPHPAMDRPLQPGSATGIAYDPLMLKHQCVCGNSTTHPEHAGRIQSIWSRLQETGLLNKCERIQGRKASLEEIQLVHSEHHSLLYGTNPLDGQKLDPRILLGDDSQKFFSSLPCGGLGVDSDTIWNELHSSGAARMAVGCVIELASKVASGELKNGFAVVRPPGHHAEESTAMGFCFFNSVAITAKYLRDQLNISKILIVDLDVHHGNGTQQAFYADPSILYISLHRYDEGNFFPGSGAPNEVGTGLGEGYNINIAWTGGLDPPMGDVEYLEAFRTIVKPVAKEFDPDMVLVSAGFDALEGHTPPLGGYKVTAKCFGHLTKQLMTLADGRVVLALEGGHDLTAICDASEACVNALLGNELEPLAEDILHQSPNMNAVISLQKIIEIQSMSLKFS
UniProt Q969S8: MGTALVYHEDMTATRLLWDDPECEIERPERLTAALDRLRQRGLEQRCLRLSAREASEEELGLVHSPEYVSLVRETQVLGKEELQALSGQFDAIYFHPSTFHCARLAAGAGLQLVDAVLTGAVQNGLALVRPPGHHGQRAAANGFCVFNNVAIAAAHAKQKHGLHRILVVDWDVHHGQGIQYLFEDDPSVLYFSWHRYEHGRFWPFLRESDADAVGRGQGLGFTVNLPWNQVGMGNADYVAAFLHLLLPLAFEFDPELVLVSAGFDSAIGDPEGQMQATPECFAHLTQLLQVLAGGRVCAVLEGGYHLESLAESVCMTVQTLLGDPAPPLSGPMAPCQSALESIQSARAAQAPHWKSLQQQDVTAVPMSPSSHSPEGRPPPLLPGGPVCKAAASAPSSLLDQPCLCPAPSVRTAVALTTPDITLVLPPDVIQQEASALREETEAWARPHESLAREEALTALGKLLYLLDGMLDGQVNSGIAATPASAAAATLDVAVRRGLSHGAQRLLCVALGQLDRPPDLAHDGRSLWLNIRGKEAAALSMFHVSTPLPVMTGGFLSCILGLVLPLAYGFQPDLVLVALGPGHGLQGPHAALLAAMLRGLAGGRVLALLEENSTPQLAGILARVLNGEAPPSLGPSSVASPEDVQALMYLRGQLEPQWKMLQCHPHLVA

Assay [1] addresses Histone deacetylase (Homo sapiens) (UniProt Q13547+O15379+Q9UBN7+Q92769+Q9UQL6+Q8WUI4+Q9BY41+Q96DB2+P56524+Q9UKV0+Q969S8). Description: Ratio of SAHA IC50 to compound IC50 for HDAC in human HeLa cell nuclear extracts using Ac-NH-GGK(Ac)-AMC as substrate after 180 mins by fluorescence assay. The assay is classed as protein assay.
For the next assay, the target named is Histone deacetylase 1 (Homo sapiens, UniProt Q13547). Put plainly: Ratio of SAHA IC50 to compound IC50 for human recombinant HDAC1 expressed in human HEK293 cells using Ac-NH-GGK(Ac)-AMC as substrate after 180 mins by fluorescence assay. It is filed as cell-based.

Turning to `C#Cc1cccc(Nc2ncnc3ccc(S(=O)(=O)n4ccc(/C=C/C(=O)NO)c4)cc23)c1`, the Ratio IC50 (in assay [1]; on Histone deacetylase 1) was 10 in each case.
